Assay results published in article PMC4875962 (Clinical Pharmacokinetics, 2015).

Tests used:
[1] = test system: PT, INR, aPTT, intrinsic FX activity, thrombin generation, anti-FXa; conditions: cited from earlier work
[2] = single and multiple oral doses, healthy subjects; cited from earlier work
[3] = test system: intrinsic FX activity; conditions: patients with AF, cited from earlier work
[4] = test system: plasma anti-FXa activity, PT, aPTT; conditions: single 60 or 180 mg dose, healthy subjects; data on file
[5] = test system: thrombin generation and platelet activation; conditions: cited from earlier work
[6] = Severe impairment: CLCR <30 mL/min; cited from earlier work

SMILES: CN1CCc2nc(C(=O)N[C@@H]3C[C@@H](C(=O)N(C)C)CC[C@@H]3NC(=O)C(=O)Nc3ccc(Cl)cn3)sc2C1 [edoxaban]
- anticoagulant effects of edoxaban on coadministration of aspirin [1]: not affected
- effect on thrombin generation assay parameters vs either drug alone ([1]; edoxaban 60 mg and subcutaneous enoxaparin 1 mg/kg): increased effect
- time to peak plasma concentration (Cmax) [2]: 1 to 2 h and 1.0 to 2.0 h
- duration of intrinsic FX activity suppression ([3]; 30 mg twice daily regimen): 18.8 h
- duration of intrinsic FX activity suppression ([3]; 60 mg once daily regimen): 13.7 h
- relation of plasma edoxaban concentrations to anti-FXa activity [4]: linearly related
- duration of anticoagulant effects [5]: 24 h
- inhibition of thrombin generation and platelet activation ([5]; single doses of 30, 60 and 120 mg): significant inhibition
- AUC∞ [6]: 0.857 ± 0.199 µg·h/mL

“And” between values parts separate entries of the source, which are not always exact repeats. Equal entries are not always repeated. Where two headings read alike, the source gives them in different places.
